Bioassay records from PubChem.
A selection: hits, their analogues and other compounds. The true share with any hit is near 3.7%.
Nrf2 ARE act – Nrf2 pathway activation | AREc32 ARE-luciferase reporter (MCF7-derived line), luminescence, 24 h | Potency, µM (top dose mostly 46.1 µM), usual class: activators | 410,000 tested, 0.31% active | AID 624171; note: nearly all actives have a fitted effect of over 65% in size
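ARE activation measured as luciferase luminescence (Steady-Glo, 30 min RT) in AREc32_Fluc cells after 24 hr compound exposure at 37 deg C, 5% CO2; cells seeded overnight at 1000/well in OPTI-MEM, 5% FBS.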
ClpP mod – qHTS Assay for Activators of ClpP | ATP-dependent Clp protease proteolytic subunit (Bacillus subtilis (strain 168)), P80244 | purified B. subtilis ClpP, FRET peptide cleavage, 20 min | Potency, µM (titrated, usually from 57.5 µM) | 340,000 tested, 1.9% active; active = well fitted falling curve with a large enough effect; inconclusive = small, poorly fitted or top-dose-only effect; inactive = no such curve, though single readings can be large or run the other way; note: the source files actives as falling curves though it sought activators and does not explain the sign; nearly all actives have a fitted effect of over 65% in size
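FRET quenching reversal measured ClpP activation: 10 microg/mL B. subtilis ClpP at pH 8 with the FRET-FV decapeptide, read at 430 nm after 320 nm excitation. The 20-min minus 0-min signal was scaled between DMSO/no-enzyme wells and ADEP (5.8 microM final).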
Nrf2 inh – inhibitors of Nrf2 signaling | A549 ARE-Fluc reporter, luciferase luminescence, 18-24 h | Potency, µM (highest dose often 46 µM), usual class: inhibitors | 360,000 tested, 2.1% active; note: nearly all actives have a fitted effect of over 60% in size
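Nrf2 activity is the BugLite luminescence, read 15 min after reagent at room temperature, following CellTiter-Fluor cytotoxicity readout (30 min, 37C). Compound titrations were applied for 18-24 h to 5000 A549 ARE_Fluc cells/well in 5% FBS OPTI-MEM.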
IL2 activator – activates IL-2 in a cell-based reporter assay. AID 652025. IL-2 activation reporter assay, cell-based qHTS; stimulated with anti-CD3/CD4/CD28 beads; in transgenic mouse T cells. activation, % (series mostly up to about 46 µM). 360,000 tested, 0.065% active; in the data active = activation above about 50%; inconclusive = mostly about 30% to 49%
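EGFP and DsRed fluorescence is measured by plate cytometry in unstimulated transgenic mouse T cells exposed to compound for 60 minutes, then stimulated 18 hours at 37 degrees C with anti-CD3/anti-CD4 beads plus anti-CD28.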
A549 viability – A549 cytotoxicity, counter-screen for Nrf2 inhibitors | A549 ARE-Fluc cells, CellTiter-Fluor viability, 18-24 h | Potency, µM (highest dose often 46 µM), most hits filed as inhibitors | AID 504648 | 390,000 tested, 0.16% active
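Cytotoxicity counterscreen: CellTiter-Fluor fluorescence was measured in A549 ARE_Fluc cells after 18-24 h of compound exposure in a concentration series. The subsequent BugLite luminescent read reports ARE-luciferase activity.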
miR-21 FLuc – miR-21 reporter, rising signal. HeLa miR-21 FLuc reporter, luciferase, 48 h. Potency, µM (titrated, usually from 38.3 µM). 340,000 tested, under 10 active. AID 2288; active = well fitted rising curve with a large enough effect; inconclusive = small, poorly fitted or top-dose-only effect; inactive = no such curve, though single readings can be large or run the other way;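 also: miR-21 action dims this reporter so a rising signal means less miR-21 action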
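Compounds were titrated across several concentrations (up to approximately 40 uM) and incubated 48 hours with HeLa miR-21-FLuc reporter cells (miR-21 target sequence downstream of FLuc, endogenous miR-21). Readout was firefly luciferase luminescence after lytic detection reagent.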
Hits are given with their value; [ ] = another dose, or the depositor's remark. Unless noted, calls come from the whole dose curve; as a rule, active = well fitted curve in the direction sought with a large enough effect; inconclusive = small, poorly fitted or top-dose-only effect, or another doubt; inactive = no such curve, though single readings can be large; an effect the other way counts as inactive or inconclusive.

For O=C1c2cccc3c(Nc4ccccc4Cl)c([N+](=O)[O-])cc(c23)C(=O)N1CCO the results were Nrf2 ARE act inactive, ClpP mod inactive, Nrf2 inh 13µM, IL2 activator inconclusive and miR-21 FLuc inactive.
Screening CCOc1ccc(NC(=O)c2cnn3c2NC(c2ccccc2)=CC3c2cccc(OC)c2OC)cc1 (stereo unspecified) returned Nrf2 ARE act inactive, ClpP mod inactive, Nrf2 inh inactive, A549 viability inactive and miR-21 FLuc inactive.
Screening CCOC(=O)N=Nc1c2ccccc2c2nc3no[nH]c3nc12 returned Nrf2 ARE act inactive, Nrf2 inh 0.65µM, IL2 activator inactive, A549 viability 0.92µM and miR-21 FLuc inconclusive.
For COC(=O)c1ccc(COC(=O)c2ccccn2)cc1 the results were Nrf2 ARE act inactive, ClpP mod inactive, Nrf2 inh inactive, IL2 activator inactive, A549 viability inactive and miR-21 FLuc inactive.
For COC(=O)c1ccc(COC(=O)CCc2nc(-c3ccccc3)c(-c3ccccc3)o2)cc1 the results were Nrf2 ARE act inactive, ClpP mod 32µM, Nrf2 inh inactive, IL2 activator inactive, A549 viability inactive and miR-21 FLuc inactive.
`CCOC(=O)Nc1sc2c(c1C(=O)OCC)CCC2` gave Nrf2 ARE act inactive, ClpP mod inactive, Nrf2 inh inactive, IL2 activator inactive, A549 viability inactive and miR-21 FLuc inactive.
Screening CCOC(=O)c1c(NC(=O)c2nn(CC)cc2Br)sc2c1CCCCC2 returned Nrf2 ARE act inactive, ClpP mod 28µM, Nrf2 inh inconclusive, IL2 activator inactive, A549 viability inactive and miR-21 FLuc inactive.
`CCOC(=O)c1c(NC(=O)c2nn(CC)cc2Br)sc(C)c1C` gave Nrf2 ARE act inactive, ClpP mod inactive, Nrf2 inh inactive, IL2 activator inactive, A549 viability inactive[1.84 µM] and miR-21 FLuc inactive.
Screening CCOC(=O)c1c(NC(=O)c2ccoc2C)sc2c1CCC2 returned Nrf2 ARE act inactive, ClpP mod 35µM, Nrf2 inh inconclusive, IL2 activator inactive, A549 viability inactive and miR-21 FLuc inactive.
For CCOC(=O)c1c(NC(=O)c2ccccc2C)sc2c1CCCC2 the results were Nrf2 ARE act inactive, ClpP mod 32µM, Nrf2 inh inconclusive, A549 viability inactive and miR-21 FLuc inactive.
Screening CCOC(=O)c1c(NC(NC(=O)C(C)C)C(Cl)(Cl)Cl)sc2c1CCC2 (stereo unspecified) returned Nrf2 ARE act inactive, ClpP mod inactive, Nrf2 inh 23µM, IL2 activator inactive, A549 viability inconclusive and miR-21 FLuc inactive.
Screening Cc1cc2c(s1)c1cnn(Cc3ccc(OC(F)F)cc3)c(=O)c1n2C returned Nrf2 inh inactive and A549 viability inactive.
CCN(C(=O)CSc1nc2cc(C(=O)OC)ccc2c(=O)n1Cc1ccco1)c1cccc(C)c1 was read as Nrf2 ARE act inactive, ClpP mod 32µM, Nrf2 inh inactive, IL2 activator inactive, A549 viability inactive and miR-21 FLuc inactive.
Screening N#Cc1ccc(C(=O)CSc2n[nH]c(=O)n2Cc2ccco2)cc1 returned Nrf2 ARE act inactive, ClpP mod 28µM, Nrf2 inh inactive, IL2 activator inactive, A549 viability inactive and miR-21 FLuc inactive.
Screening CCOC(=O)CSc1nc2ccccc2c(=O)n1Cc1ccco1 returned Nrf2 ARE act inactive, ClpP mod inactive, Nrf2 inh inactive, IL2 activator inactive, A549 viability inconclusive and miR-21 FLuc inactive.
`O=C(CSc1n[nH]c(=O)n1Cc1ccco1)c1ccc2c(c1)OCCO2` gave Nrf2 ARE act inactive, ClpP mod inactive, Nrf2 inh inactive, IL2 activator inactive, A549 viability inactive and miR-21 FLuc inactive.
Screening O=C(CSc1nc2ccccc2c(=O)n1Cc1ccco1)c1ccccc1 returned Nrf2 ARE act inactive, ClpP mod inactive, Nrf2 inh 18µM, IL2 activator inactive, A549 viability inactive[1.84 µM] and miR-21 FLuc inactive.
O=c1c2ccccc2nc(SCc2nc3ccccc3s2)n1Cc1ccco1 was read as Nrf2 ARE act inactive, ClpP mod inactive, Nrf2 inh 4.6µM, IL2 activator inactive, A549 viability inactive[1.84 µM] and miR-21 FLuc inactive.
For CNc1ccc(C=O)cc1Cl the results were ClpP mod inactive.
`CC1CCN(C(=O)CN2CC(C)Sc3ccccc32)CC1` (stereo unspecified) gave Nrf2 ARE act inactive, ClpP mod inactive, A549 viability inactive and miR-21 FLuc inactive.
CC[C@@H]1[C@H]2CCCC(=O)N3CC[C@@H](C[C@@H]1OC(=O)Nc1ccc4c(c1)OCO4)[C@@H]23 was read as ClpP mod inactive.
For CC(C)(C)c1cnnn1-c1ccc(/C=N/Nc2ccc([N+](=O)[O-])cc2)cc1 the results were Nrf2 ARE act inactive, ClpP mod inactive, Nrf2 inh inconclusive, IL2 activator inactive, A549 viability 16µM and miR-21 FLuc inactive.
For CCCN(c1c(C)n(C)n(-c2ccccc2)c1=O)S(=O)(=O)c1ccc(C)cc1 the results were Nrf2 ARE act inactive, ClpP mod inactive, Nrf2 inh inactive, A549 viability inactive and miR-21 FLuc inactive.
`CCCCNCCOCCOc1ccc(F)cc1` gave Nrf2 ARE act inactive, ClpP mod 3.2µM, Nrf2 inh inactive, IL2 activator inactive, A549 viability inactive and miR-21 FLuc inactive.
Screening COc1cccc(C(=O)NC(=S)Nc2ccc(N3CCCC3)cc2)c1 returned Nrf2 ARE act inactive, ClpP mod inactive, IL2 activator inactive, A549 viability inactive and miR-21 FLuc inactive.
CCCC(=O)N1CCN(c2ccc(NC(=S)NC(=O)c3cccc(C)c3)cc2)CC1 was read as Nrf2 ARE act inactive, ClpP mod inconclusive, Nrf2 inh 15µM, IL2 activator inactive, A549 viability inactive and miR-21 FLuc inactive.
For CC[n+]1c(C=C2C=C(C)OC(C)=C2)sc2ccccc21 the results were Nrf2 ARE act inactive, Nrf2 inh 0.73µM, IL2 activator inactive, A549 viability 2.9µM and miR-21 FLuc inconclusive.
CC[n+]1c(/C=C(\C)SC)sc2ccccc21 was read as Nrf2 ARE act inactive, ClpP mod inactive, Nrf2 inh 21µM, IL2 activator inactive, A549 viability inactive and miR-21 FLuc inactive.
For N#Cc1nc(-c2ccccc2)cc(-c2ccccc2)n1 the results were ClpP mod inactive.
`CCOC(=O)c1c(C)[nH]c(C)c1S(=O)(=O)NCC(=O)N(C)c1ccc(C)c(C)c1` gave Nrf2 ARE act inactive, ClpP mod inactive, Nrf2 inh inconclusive, A549 viability inactive and miR-21 FLuc inactive.
`COc1cc(CN(C(=O)c2cccc(C)c2)c2ccccn2)cc(OC)c1OC` gave Nrf2 ARE act inactive, ClpP mod inactive, Nrf2 inh inactive, A549 viability inactive and miR-21 FLuc inactive.
